Values quoted from earlier work in article PMC10361461, “Evaluating the solubility of compounds intended for intramammary infusion based upon tests conducted across a range of milk matrices” (PLOS ONE, 2023).

Details: cited from earlier work

SMILES: CN1C(C(=O)Nc2ccccn2)=C(O)c2ccccc2S1(=O)=O [Piroxicam]
- Ionization state at pH 7: Negatively charged
